Counter-ions that a name gives are not always drawn.
Tests used:
Format in all cases: cell-based
Details in all cases: 100 µM glutamate plus 30 µM glycine, -40 mV
human GluN1/GluN2B = human GluN1/GluN2B (Homo sapiens, UniProt Q05586+Q13224)
rat GluN1/GluN2B = rat GluN1/GluN2B (Rattus norvegicus, UniProt P35439+Q00960)
rat GluN1/GluN2A = rat GluN1/GluN2A (Rattus norvegicus, UniProt P35439+Q00959); experiment: Two-electrode voltage-clamp recordings, recombinant receptors in Xenopus oocytes
rat GluN1/GluN2C = rat GluN1/GluN2C (Rattus norvegicus, UniProt P35439+Q00961)
rat GluN1/GluN2D = rat GluN1/GluN2D (Rattus norvegicus, UniProt P35439+Q62645)

The chains behind the UniProt entries cited, without tags or fusion partners. Residues count along the entry.
UniProt Q00960, 27-1482: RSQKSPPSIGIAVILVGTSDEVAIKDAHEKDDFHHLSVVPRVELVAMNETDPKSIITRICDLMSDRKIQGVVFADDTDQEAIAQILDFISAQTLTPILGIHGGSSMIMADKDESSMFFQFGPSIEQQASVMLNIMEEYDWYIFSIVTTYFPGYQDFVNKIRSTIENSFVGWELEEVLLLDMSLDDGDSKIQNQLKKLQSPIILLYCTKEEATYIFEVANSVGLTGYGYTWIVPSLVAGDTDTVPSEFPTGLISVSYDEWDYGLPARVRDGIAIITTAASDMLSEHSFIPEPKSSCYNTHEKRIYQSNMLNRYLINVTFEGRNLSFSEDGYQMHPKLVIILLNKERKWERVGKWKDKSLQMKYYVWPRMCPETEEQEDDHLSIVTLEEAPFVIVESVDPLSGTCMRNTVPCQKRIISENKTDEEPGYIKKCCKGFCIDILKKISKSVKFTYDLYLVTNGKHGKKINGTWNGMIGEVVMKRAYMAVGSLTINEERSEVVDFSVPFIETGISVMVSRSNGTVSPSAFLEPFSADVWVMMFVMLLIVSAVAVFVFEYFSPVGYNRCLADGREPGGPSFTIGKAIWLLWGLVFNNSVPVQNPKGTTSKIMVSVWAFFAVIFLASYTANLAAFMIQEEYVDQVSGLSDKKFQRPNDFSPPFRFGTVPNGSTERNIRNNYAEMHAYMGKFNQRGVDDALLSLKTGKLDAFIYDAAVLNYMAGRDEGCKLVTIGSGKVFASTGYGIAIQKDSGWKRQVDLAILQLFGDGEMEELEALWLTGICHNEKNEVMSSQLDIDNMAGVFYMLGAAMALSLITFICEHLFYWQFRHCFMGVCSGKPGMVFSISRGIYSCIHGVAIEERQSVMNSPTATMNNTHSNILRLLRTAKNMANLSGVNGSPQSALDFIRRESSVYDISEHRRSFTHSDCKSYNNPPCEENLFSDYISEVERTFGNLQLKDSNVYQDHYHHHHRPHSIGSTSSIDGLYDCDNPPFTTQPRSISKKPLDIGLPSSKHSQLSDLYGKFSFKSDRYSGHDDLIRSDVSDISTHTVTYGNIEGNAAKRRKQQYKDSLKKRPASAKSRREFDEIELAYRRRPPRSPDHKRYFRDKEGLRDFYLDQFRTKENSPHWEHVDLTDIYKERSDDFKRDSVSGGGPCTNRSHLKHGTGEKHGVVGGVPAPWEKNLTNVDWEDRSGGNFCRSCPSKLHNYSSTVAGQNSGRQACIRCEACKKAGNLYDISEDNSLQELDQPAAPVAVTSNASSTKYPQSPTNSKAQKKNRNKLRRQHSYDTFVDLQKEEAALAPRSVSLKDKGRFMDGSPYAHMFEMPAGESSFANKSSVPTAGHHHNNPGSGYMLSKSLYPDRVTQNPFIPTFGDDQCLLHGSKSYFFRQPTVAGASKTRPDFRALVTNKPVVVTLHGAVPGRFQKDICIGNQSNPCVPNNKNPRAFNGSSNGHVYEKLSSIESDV
UniProt Q00959, 23-1464: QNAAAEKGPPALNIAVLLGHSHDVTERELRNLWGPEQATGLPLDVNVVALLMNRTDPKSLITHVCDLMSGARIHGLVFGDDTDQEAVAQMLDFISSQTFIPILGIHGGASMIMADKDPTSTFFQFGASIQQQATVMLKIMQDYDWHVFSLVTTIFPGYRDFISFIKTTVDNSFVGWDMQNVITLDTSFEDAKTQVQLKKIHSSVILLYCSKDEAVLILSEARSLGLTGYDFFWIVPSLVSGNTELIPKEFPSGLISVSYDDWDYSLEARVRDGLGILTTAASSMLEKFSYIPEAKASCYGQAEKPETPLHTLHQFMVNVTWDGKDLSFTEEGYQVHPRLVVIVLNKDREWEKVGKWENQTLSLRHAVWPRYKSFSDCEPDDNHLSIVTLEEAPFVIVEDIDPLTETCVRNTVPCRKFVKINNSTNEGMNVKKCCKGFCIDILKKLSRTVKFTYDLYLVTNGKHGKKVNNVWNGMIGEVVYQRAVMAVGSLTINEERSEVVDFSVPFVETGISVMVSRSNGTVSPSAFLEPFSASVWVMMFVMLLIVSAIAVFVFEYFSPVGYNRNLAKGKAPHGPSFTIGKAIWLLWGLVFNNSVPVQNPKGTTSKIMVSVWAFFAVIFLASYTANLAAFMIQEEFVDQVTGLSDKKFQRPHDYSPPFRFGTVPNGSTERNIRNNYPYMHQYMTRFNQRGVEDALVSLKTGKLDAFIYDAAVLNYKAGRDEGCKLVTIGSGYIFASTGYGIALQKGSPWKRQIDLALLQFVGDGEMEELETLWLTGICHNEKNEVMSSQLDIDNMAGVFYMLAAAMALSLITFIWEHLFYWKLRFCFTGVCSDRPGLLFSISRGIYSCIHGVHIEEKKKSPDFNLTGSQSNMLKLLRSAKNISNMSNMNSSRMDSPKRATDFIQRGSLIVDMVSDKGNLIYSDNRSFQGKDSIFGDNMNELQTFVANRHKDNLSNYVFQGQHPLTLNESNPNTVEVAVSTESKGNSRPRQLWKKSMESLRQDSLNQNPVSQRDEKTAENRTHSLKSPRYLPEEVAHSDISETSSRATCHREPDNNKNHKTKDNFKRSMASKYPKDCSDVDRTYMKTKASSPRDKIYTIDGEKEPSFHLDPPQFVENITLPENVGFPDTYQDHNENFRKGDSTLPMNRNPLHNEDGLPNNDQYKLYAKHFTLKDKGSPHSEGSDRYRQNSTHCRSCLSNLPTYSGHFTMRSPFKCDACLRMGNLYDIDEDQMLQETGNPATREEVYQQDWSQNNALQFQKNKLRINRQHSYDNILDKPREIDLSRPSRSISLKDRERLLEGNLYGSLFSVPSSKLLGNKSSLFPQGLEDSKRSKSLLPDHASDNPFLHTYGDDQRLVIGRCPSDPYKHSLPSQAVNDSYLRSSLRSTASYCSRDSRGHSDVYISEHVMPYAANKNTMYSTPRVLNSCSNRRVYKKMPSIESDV
UniProt Q00961, 20-1237: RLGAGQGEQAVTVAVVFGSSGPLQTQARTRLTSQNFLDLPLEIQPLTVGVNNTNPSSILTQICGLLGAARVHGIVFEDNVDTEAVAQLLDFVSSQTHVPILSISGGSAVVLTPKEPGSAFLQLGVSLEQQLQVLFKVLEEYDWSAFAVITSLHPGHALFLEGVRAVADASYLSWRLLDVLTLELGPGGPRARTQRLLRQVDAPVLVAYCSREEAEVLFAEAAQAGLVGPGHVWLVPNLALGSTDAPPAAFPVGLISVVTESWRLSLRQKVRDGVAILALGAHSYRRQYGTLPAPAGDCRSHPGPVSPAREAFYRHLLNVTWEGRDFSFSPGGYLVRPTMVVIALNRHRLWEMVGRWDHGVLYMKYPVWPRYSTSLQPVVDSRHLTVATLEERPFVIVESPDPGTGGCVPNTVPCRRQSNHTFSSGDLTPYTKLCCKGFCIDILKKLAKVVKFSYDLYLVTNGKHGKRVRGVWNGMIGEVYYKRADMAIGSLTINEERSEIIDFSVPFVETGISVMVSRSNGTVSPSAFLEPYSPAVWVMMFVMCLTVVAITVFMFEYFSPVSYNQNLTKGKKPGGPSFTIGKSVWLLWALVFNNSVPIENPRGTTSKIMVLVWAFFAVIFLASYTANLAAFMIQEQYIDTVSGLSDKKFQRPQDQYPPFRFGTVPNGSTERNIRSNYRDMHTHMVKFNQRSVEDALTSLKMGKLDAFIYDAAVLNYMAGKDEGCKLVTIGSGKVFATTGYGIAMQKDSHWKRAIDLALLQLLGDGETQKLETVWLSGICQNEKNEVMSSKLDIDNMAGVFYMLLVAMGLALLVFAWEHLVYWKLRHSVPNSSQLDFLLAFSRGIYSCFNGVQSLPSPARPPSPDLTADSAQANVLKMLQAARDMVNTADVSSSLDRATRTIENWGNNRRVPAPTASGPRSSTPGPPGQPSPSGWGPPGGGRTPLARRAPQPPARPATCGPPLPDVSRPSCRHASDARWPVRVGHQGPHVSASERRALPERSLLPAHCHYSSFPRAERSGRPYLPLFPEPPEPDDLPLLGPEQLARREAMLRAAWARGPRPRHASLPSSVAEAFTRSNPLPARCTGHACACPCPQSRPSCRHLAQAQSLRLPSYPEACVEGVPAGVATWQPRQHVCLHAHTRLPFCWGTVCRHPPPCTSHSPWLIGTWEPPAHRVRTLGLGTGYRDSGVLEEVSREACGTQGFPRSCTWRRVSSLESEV
UniProt Q62645, 28-1323: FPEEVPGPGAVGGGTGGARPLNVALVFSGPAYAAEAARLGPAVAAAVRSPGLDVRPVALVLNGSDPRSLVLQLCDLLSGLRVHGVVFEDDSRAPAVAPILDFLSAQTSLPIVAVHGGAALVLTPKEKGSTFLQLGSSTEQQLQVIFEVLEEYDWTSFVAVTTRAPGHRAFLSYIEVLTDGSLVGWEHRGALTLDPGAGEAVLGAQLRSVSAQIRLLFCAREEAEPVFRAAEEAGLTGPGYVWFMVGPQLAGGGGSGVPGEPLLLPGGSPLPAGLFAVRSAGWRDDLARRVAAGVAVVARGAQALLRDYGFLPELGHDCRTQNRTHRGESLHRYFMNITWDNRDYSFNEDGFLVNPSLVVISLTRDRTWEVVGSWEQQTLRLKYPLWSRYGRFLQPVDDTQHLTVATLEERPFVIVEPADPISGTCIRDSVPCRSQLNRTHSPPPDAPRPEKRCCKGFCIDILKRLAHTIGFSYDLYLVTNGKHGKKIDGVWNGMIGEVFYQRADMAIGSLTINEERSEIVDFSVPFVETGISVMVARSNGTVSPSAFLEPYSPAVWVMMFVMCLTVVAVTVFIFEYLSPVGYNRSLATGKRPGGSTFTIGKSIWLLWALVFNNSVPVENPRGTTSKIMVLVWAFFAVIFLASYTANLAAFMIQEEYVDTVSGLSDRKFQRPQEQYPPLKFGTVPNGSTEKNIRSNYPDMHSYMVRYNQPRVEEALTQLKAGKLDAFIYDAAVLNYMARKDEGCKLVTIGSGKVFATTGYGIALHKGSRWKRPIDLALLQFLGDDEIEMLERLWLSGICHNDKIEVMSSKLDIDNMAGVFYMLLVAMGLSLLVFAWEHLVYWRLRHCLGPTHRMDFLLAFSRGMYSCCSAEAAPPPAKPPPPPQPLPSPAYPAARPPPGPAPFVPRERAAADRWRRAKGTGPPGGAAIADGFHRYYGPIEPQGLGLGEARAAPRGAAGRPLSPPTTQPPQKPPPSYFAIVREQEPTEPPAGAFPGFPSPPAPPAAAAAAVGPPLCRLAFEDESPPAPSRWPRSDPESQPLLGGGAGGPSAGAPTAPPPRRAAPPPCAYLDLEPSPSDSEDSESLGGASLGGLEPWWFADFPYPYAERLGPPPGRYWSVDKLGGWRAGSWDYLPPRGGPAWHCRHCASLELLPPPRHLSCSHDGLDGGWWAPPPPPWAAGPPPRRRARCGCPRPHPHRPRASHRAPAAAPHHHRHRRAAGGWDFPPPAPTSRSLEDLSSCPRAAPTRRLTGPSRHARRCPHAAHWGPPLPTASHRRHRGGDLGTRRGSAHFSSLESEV

With C[C@@H](CN1CCC(Cc2ccccc2)CC1)[C@@H](O)c1ccc(O)cc1.O=C(O)/C=C\C(=O)O [Ro 25–6981, (αR,βS)-α-(4-hydroxyphenyl)-β-methyl-4-(phenylmethyl)-1-piperidinepropanol maleate] the “nH (Hill slope, inhibition)” value (human GluN1/GluN2B) was 1.3 and the “nH (Hill slope, inhibition)” value (rat GluN1/GluN2B) was 1.3.

With CC12CC3CC(C)(C1)CC(N)(C3)C2 [memantine, memantine hydrochloride] the “nH (Hill slope, inhibition)” value (rat GluN1/GluN2A) was 1.1, the “nH (Hill slope, inhibition)” value (rat GluN1/GluN2B) was 1.4 and the “nH (Hill slope, inhibition)” value (rat GluN1/GluN2C) was 0.9. For the same compound, the “nH (Hill slope, inhibition)” value (rat GluN1/GluN2D) was 1.0.

From paper PMC3335988 (Neurochemistry international, 2011)
